In patent US20150299305A1 (Alexion, published 2015):
Where “and” joins values, the source holds several entries; their conditions need not be identical. Identical values can stand only once. Values belong to the binder of their own block, whether it stands above or below them.

Legend:
[1] = molecular target: T1, human complement component C5 (human, UniProt P01031 19-673; P01031 678-1676); assay: SPR, pH 6.0
T1 construct: mature; Native purified protein; also called human C5; hC5

[2] = molecular target: T1, human complement component C5; assay: SPR, pH 7.4
[3] = molecular target: T1, human complement component C5; assay: SPR, anti-Fc capture, pH 6.0
[4] = molecular target: T1, human complement component C5; assay: SPR, anti-Fc capture, pH 6.5
[5] = molecular target: T1, human complement component C5; assay: SPR, anti-Fc capture, pH 7.0
[6] = molecular target: T1, human complement component C5; assay: SPR, anti-Fc capture, pH 7.4
[7] = molecular target: T1, human complement component C5; assay: SPR, anti-Fc capture, pH 8.0
[8] = molecular target: T1, human complement component C5; assay: SPR, anti-Fc capture, C5 0.19-6 nM, pH 7.4
[9] = molecular target: T1, human complement component C5; assay: SPR
[10] = molecular target: T1, human complement component C5; assay: SPR, pH 6.0; remark: listed apart in the source
[11] = molecular target: T1, human complement component C5; assay: SPR, pH 7.4; remark: listed apart in the source
[12] = molecular target: T1, human complement component C5; assay: ratio of the KDs of Table 4 at pH 6.0 and pH 7.4

fold weakening of KD compared with eculizumab [1]: ~36 fold
fold weakening of KD compared with eculizumab [2]: ~17 fold
Kd [3]: 21.8 nM
koff [3]: 0.00354 s⁻¹
kon [3]: 163000 M⁻¹ s⁻¹
Kd [4]: 2.19 nM
koff [4]: 0.000894 s⁻¹
kon [4]: 408000 M⁻¹ s⁻¹
Kd [5]: 0.911 nM
koff [5]: 0.00039 s⁻¹
kon [5]: 428000 M⁻¹ s⁻¹
Kd [6]: 0.491 nM
koff [6]: 0.000227 s⁻¹
kon [6]: 462000 M⁻¹ s⁻¹
Kd [7]: 0.213 nM
koff [7]: 0.000133 s⁻¹
kon [7]: 625000 M⁻¹ s⁻¹
Kd [8]: 0.461 nM and 0.421 nM
koff [8]: 0.000205 s⁻¹ and 0.000204 s⁻¹
kon [8]: 444000 M⁻¹ s⁻¹ and 486000 M⁻¹ s⁻¹
B1: BNJ441 (antibody, human IgG2, kappa)
heavy: QVQLVQSGAEVKKPGASVKVSCKASGHIFSNYWIQWVRQAPGQGLEWMGEILPGSGHTEYTENFKDRVTMTRDTSTSTVYMELSSLRSEDTAVYYCARYFFGSSPNWYFDVWGQGTLVTVSSASTKGPSVFPLAPCSRSTSESTAALGCLVKDYFPEPVTVSWNSGALTSGVHTFPAVLQSSGLYSLSSVVTVPSSNFGTQTYTCNVDHKPSNTKVDKTVERKCCVECPPCPAPPVAGPSVFLFPPKPKDTLMISRTPEVTCVVVDVSQEDPEVQFNWYVDGVEVHNAKTKPREEQFNSTYRVVSVLTVLHQDWLNGKEYKCKVSNKGLPSSIEKTISKAKGQPREPQVYTLPPSQEEMTKNQVSLTCLVKGFYPSDIAVEWESNGQPENNYKTTPPVLDSDGSFFLYSRLTVDKSRWQEGNVFSCSVLHEALHSHYTQKSLSLSLGK
light: DIQMTQSPSSLSASVGDRVTITCGASENIYGALNWYQQKPGKAPKLLIYGATNLADGVPSRFSGSGSGTDFTLTISSLQPEDFATYYCQNVLNTPLTFGQGTKVEIKRTVAAPSVFIFPPSDEQLKSGTASVVCLLNNFYPREAKVQWKVDNALQSGNSQESVTEQDSKDSTYSLSSTLTLSKADYEKHKVYACEVTHQGLSSPVTKSFNRGEC
notes: IgG2/G4, kappa; also called BNJ441 antibody; BNJ441 engineering batch

ratio of KD at pH 6.0/pH 7.4 [9]: 8150
Kd [10]: 1190 nM
Kd [11]: 0.146 nM
ratio of (KD at pH 6.0)/(KD at pH 7.4) [12]: > 8000
B2: EHG303 (antibody, human IgG2, kappa)
heavy: LEQVQLVQSGAEVKKPGASVKVSCKASGHIFSNYWIQWVRQAPGQGLEWMGEILPGSGHTEYTENFKDRVTMTRDTSTSTVYMELSSLRSEDTAVYYCARYFFGSSPNWYFDVWGQGTLVTVSSASTKGPSVFPLAPCSRSTSESTAALGCLVKDYFPEPVTVSWNSGALTSGVHTFPAVLQSSGLYSLSSVVTVPSSNFGTQTYTCNVDHKPSNTKVDKTVERKCCVECPPCPAPPVAGPSVFLFPPKPKDTLMISRTPEVTCVVVDVSQEDPEVQFNWYVDGVEVHNAKTKPREEQFNSTYRVVSVLTVLHQDWLNGKEYKCKVSNKGLPSSIEKTISKAKGQPREPQVYTLPPSQEEMTKNQVSLTCLVKGFYPSDIAVEWESNGQPENNYKTTPPVLDSDGSFFLYSRLTVDKSRWQEGNVFSCSVMHEALHNHYTQKSLSLSLGK
light: RDIQMTQSPSSLSASVGDRVTITCGASENIYGALNWYQQKPGKAPKLLIYGATNLADGVPSRFSGSGSGTDFTLTISSLQPEDFATYYCQNVLNTPLTFGQGTKVEIKRTRTVAAPSVFIFPPSDEQLKSGTASVVCLLNNFYPREAKVQWKVDNALQSGNSQESVTEQDSKDSTYSLSSTLTLSKADYEKHKVYACEVTHQGLSSPVTKSFNRGEC
notes: also called Y27H-S57H double substitution
